Results taken from PMC6326798.

T1: non-tagged hsCENP-K, Q9BS16
T1 chain: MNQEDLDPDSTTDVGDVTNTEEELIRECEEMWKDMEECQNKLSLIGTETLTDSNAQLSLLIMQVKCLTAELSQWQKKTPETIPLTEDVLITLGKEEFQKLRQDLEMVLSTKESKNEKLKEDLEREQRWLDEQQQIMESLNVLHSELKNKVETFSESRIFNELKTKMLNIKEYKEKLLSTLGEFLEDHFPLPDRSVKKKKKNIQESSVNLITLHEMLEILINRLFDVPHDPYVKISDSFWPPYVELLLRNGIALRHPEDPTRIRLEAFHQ

T2: GST-hsCENP-K^ΔN85, Q9BS16
T2 chain: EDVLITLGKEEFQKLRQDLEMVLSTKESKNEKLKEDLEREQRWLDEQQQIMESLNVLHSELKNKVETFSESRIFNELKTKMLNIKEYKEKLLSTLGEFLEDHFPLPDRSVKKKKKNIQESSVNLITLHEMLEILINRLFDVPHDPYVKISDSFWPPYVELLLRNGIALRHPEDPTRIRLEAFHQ

B1: GFP-hsCENP-H WT, Q9H3R5 K234E; L238A (protein)
chain: MEEQPQMQDADEPADSGGEGRAGGPPQVAGAQAACSEDRMTLLLRLRAQTKQQLLEYKSMVDASEEKTPEQIMQEKQIEAKIEDLENEIEEVKVAFEIKKLALDRMRLSTALKKNLEKISRQSSVLMDNMKHLLELNKLIMKSQQESWDLEEKLLDIRKKRLQLKQASESKLLEIQTEKNKQKIDLDSMENSERIKIIRQNLQMEIKITTVIQHVFQNLILGSKVNWAEDPALEEIVAQLEKNVDMM
B2: GFP-hsCENP-H WT, Q9H3R5 L219A; L233A (protein)
chain: B1 chain with L219A, L233A, E234K, A238L
B3: hsCENP-H WT (recombinant, GST pull-down), Q9H3R5 L233A (protein)
chain: B1 chain with L233A, E234K, A238L
B4: hsCENP-H WT (recombinant, GST pull-down), Q9H3R5 L219A (protein)
chain: B1 chain with L219A, E234K, A238L
B5: hsCENP-H WT (recombinant, GST pull-down), Q9H3R5 K234E; L238A (protein)
chain: B1 chain
B6: hsCENP-H WT (recombinant, GST pull-down), Q9H3R5 L219A; V225A (protein)
chain: B1 chain with L219A, V225A, E234K, A238L
B7: hsCENP-H WT (recombinant, GST pull-down), Q9H3R5 K234E (protein)
chain: B1 chain with A238L
B8: hsCENP-H WT (recombinant, GST pull-down), Q9H3R5 V225A (protein)
chain: B1 chain with V225A, E234K, A238L
B9: hsCENP-H WT (recombinant, GST pull-down), Q9H3R5 L219A; L233A (protein)
chain: B1 chain with L219A, L233A, E234K, A238L
B10: hsCENP-H WT (recombinant, GST pull-down), Q9H3R5 L238A (protein)
chain: B1 chain with E234K
B11: hsCENP-H WT (recombinant, GST pull-down), Q9H3R5 V225A; L233A (protein)
chain: B1 chain with V225A, L233A, E234K, A238L

Molecular target: T1, non-tagged hsCENP-K, Q9BS16
Experiment: co-immunoprecipitation (anti-GFP IP, western blot quantification)
Settings: chain shown with the change; HeLa Tet-On cells co-transfected with GFP-hsCENP-H, non-tagged hsCENP-K and MYC-hsCENP-I; parent: est. 1.0; read off a plot

| ratio to parent | Binder |
| --- | --- |
| 0.91 | B1 |
| 0.66 | B2 |

Molecular target: T2, GST-hsCENP-K^ΔN85, Q9BS16
Experiment: GST pull-down
Settings: chain shown with the change;; parent: est. 1.0; read off a plot

| ratio to parent | Binder |
| --- | --- |
| 0.69 | B3 |
| 0.65 | B4 |
| 1.1 | B5 |
| 0.33 | B6 |
| 1.1 | B7 |
| 0.7 | B8 |
| 0.35 | B9 |
| 1.1 | B10 |
| 0.46 | B11 |

Where a chain is given by its changes, count along the chain named. Names and notes keep the numbering of the source.
